Values of other authors, collected in PMC9895975, “Self-association of the glycopeptide antibiotic teicoplanin A2 in aqueous solution studied by molecular hydrodynamics” (Scientific Reports, 2023).

Columns and labels:
[1] = intravenous injection; also printed as 10 mg/L; cited from earlier work
[2] = cited from earlier work
[3] = reversible, above a similar concentration; cited from earlier work
Text: There are some similarities with another “last line of defence” glycopeptide antibiotic vancomycin[33],[55] […] On the other hand, teicoplanin with its higher degree of glycosylation (two residues in vancomycin versus three residues in teicoplanin) and the lipid chains attached to one of the glcNAc residue self-associates to give a much larger 18–19mer structure in solution, a structure which is broken by the hydrogen bond and ion ...

| Substance | serum concentration in the clinical setting [1] | penetration into human aqueous humour below the cornea ([2]; 10 mg/mL eye drops) | penetration into the aqueous humour ([2]; subconjunctival injection (approximately 0.5 mL) of 25 mg) | self-associative behaviour in solution [3] |
| --- | --- | --- | --- | --- |
| teicoplanin A2 | ~ 10 μg/mL | little penetration | no penetration | – |
| vancomycin | – | – | – | monomer–dimer only |
